# US9145381B2, “Derivative of [(3-hydroxy-4-pyron-2-yl)-methyl]-amine and use thereof as anti-neoplastic drugs” (Universita' Degli Studi Di Urbino, priority 2008, dated 2015)
# Test system: plasmid DNA (pLL3.7)
# Assay: In vitro assay of structural alterations of plasmid DNA
# Settings: +37° C.
# [1] = in the absence of copper sulphate
# [2] = in the presence of copper sulphate (CuSO4), 10 mM Tris-HCl pH 7.4
Compound,alteration of plasmid DNA electrophoretic migration [1],alteration of plasmid DNA electrophoretic migration [2]
"N,N′-bis[(3-hydroxy-4-pyron-2-yl)methyl]-N,N′-dimethylethylendiamine",induce almost exclusively plasmid DNA species having a low electrophoretic mobility,important alteration of the electrophoretic migration of the DNA which results mainly concentrated at the loading well
"CN1CCN(Cc2occc(=O)c2O)CCN(C)CCN(Cc2occc(=O)c2O)CC1 [Compound L9, 4(N),10(N)-bis[(3-hydroxy-4-pyron-2-yl)methyl]-1,7-dimethyl-1,4,7,10-tetraazacyclododecane]",induce almost exclusively plasmid DNA species having a low electrophoretic mobility,important alteration of the electrophoretic migration of the DNA which results mainly concentrated at the loading well
